The source of these data is US8822464B2, “N-aryl-piperazine derivatives and their use as positive allosteric modulators of mGluR5 receptors” (Boehringer Ingelheim International GmbH, priority 2011, dated 2014).

The chains behind the UniProt entries cited, without tags or fusion partners. Residues count along the entry.
UniProt P41594, 21-1212 limits assumed: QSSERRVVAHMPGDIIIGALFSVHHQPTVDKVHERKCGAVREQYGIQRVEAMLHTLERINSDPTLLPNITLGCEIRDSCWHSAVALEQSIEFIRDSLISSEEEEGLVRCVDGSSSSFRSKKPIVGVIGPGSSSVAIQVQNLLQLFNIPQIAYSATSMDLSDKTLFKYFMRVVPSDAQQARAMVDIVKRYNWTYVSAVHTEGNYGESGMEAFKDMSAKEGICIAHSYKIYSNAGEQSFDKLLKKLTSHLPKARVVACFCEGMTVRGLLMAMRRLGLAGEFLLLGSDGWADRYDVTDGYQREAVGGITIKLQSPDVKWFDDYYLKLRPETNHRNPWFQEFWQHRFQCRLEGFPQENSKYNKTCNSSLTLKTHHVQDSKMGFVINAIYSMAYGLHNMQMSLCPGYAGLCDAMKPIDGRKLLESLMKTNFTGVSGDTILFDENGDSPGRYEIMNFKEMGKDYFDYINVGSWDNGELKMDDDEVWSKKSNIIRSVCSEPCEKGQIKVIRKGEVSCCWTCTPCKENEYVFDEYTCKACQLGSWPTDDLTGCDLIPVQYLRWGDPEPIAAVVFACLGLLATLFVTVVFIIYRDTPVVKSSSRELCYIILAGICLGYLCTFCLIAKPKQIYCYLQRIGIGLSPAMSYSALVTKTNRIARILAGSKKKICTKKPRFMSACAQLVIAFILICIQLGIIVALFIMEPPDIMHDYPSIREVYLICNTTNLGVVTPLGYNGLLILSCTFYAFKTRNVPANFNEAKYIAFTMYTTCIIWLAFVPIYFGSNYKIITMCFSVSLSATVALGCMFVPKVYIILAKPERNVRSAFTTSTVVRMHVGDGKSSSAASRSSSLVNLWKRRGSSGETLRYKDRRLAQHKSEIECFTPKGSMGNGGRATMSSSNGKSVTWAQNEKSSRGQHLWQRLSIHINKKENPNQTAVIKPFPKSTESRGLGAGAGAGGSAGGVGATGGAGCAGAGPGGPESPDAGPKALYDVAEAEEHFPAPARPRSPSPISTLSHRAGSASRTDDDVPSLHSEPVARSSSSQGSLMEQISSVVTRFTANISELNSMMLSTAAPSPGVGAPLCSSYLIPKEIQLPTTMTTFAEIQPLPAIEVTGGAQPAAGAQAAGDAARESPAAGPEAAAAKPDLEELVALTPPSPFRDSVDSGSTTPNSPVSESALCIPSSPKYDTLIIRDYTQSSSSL

Usually EC50 stands for the concentration that produces a half-maximal response.

This test addresses human recombinant mGluR5 (Homo sapiens, UniProt P41594). Kind of test: positive modulation of mGluR5, calcium based FLIPR assay in HEK 293 cells. The note with it: read-out: EC50 of the modulation; HEK 293 cell line expressing human recombinant mGluR5; peak height of Ca release fluorescence signal after glutamate at approximately 5% basal stimulation; nonlinear regression. The procedure: The positive modulation of mGluR5 is measured in a HEK 293 cell line expressing human recombinant mGluR5 and is detected with calcium based FLIPR assay. The cells are cultured with DMEM supplemented with 10% FCS, 2 μg/mL tetracycline, 100 μg/mL hygromycin and 500 μg/mL gneticin. The cell culture media is exchanged for tetracycline-free cell culture media 3-7 days before the assay. One day before the assay the cell culture medium is exchanged to DMEM without glutamine and phenol red and supplemented with 10% FCS, 100 μg/mL hygromycin and 500 μg/mL geneticin. On the assay day, the medium of the subconfluent cultures is removed and the cells are detached by addition of 2.5 ml EDTA(0.02%) per 175 cm2 culture flask for 1 minute. […]
20 μl of each compound solution are then transferred to the assay plate and the Ca2+ kinetic is measured to determine any intrinsic compound activity. After 5 min incubation in the FLIPR device, the second stimulation with 20 μl of glutamate in Ringer solution (glutamate concentration adjusted to approximately 5% basal stimulation of the maximal possible glutamate effect) is added and the kinetic Ca2+ response of the wells was measured for the modulation effect.
The peak height of the Ca release related fluorescence signal (9-66) is used for the EC50. The EC50 of the modulation is calculated over a nonlinear regression with GraphPad Prism (Table 1).

Turning to `Cc1ccc(-c2cc(-c3ccccc3)n(CC(=O)N3CCN(c4ccccn4)CC3)n2)nc1C`, the EC50 is 29 nM.
